{
  "sequences": {"note": "The chains behind the UniProt entries cited, without tags or fusion partners.", "UniProt P35372, whole entry, looked up": "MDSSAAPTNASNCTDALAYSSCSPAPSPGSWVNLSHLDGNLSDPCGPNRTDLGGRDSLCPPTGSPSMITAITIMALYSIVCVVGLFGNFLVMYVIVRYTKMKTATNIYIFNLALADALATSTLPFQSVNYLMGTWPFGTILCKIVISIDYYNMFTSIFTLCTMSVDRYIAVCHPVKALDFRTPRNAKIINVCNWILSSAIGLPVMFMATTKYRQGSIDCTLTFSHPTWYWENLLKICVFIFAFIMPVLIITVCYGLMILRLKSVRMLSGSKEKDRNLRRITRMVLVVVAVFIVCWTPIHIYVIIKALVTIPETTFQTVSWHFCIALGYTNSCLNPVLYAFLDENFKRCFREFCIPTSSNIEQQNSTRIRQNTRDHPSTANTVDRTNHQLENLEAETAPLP", "UniProt P42866, whole entry, looked up": "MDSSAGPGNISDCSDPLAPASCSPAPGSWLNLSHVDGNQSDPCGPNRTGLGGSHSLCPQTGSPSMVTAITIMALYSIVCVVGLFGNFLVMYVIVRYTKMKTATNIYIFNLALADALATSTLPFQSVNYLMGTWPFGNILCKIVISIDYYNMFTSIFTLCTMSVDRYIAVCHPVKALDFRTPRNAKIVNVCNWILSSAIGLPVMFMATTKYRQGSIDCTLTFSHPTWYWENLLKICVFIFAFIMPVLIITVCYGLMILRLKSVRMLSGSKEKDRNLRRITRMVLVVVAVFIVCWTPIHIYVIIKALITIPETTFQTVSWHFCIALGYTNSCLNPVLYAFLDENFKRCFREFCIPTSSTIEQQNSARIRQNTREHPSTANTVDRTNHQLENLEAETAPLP"},
  "source": "patent US10751335B2",
  "about": "(priority 2016, dated 2020)",
  "key": {"human MOR": {"biological_target": "human MOR (Homo sapiens (Human), UniProt P35372)", "conditions": "normalized to DAMGO"}, "MOR": {"biological_target": "MOR (Mus musculus (Mouse), UniProt P42866)", "conditions": "1 μM"}},
  "data": [
    {"smiles": "C[C@@H](NC(=O)[C@@H](N)Cc1ccc(O)cc1)C(=O)NCC(=O)N(C)[C@@H](Cc1ccccc1)C(=O)NCCO", "values": [
      {"measurement": "G/βarr2 bias factor", "setting": "human MOR", "value": 1},
      {"measurement": "agonist-induced MOR phosphorylation at serine 375", "setting": "MOR", "value": "induce phosphorylation"}
    ]}
  ]
}
